EC50 data for two molecules are collected here from patent US20040220277A1, “Enantiomeric amphetamine compositions” (priority 2003, published 2004).

Usually EC50 stands for the midpoint of the concentration-response curve. The low end stands for a more potent agent, the high end for a less potent agent.

For assay [1], the system named is dopamine (DA) release, striatum. In words: Basal release of tritiated dopamine from rat brain slices in vitro (Brandel system). As to conditions: range in brackets. It is filed as cell-based. As for the experimental part: The DA and NA release is measured in separate brain areas, i.e., in striatum for DA release (evaluating tritiated dopamine) and in the frontal cortex for NA release (evaluating tritiated noradrenaline), using a Brandel system. The brain slices are loaded with the tritiated monoamine (dopamine or noradrenaline) and then superfused to produce basal neurotransmitter release. The slices are also subjected to 2 short periods of electrical stimulation to effect stimulated transmitter release. […] Three concentrations are tested, starting at around 1 μM and titrating up or down, to produce an EC50 value. No positive control is needed as the amphetamine will act as its own control, but there is a vehicle control.

Assay [2] has as its system noradrenaline (NA) release, frontal cortex. In words: Basal release of tritiated noradrenaline from rat brain slices in vitro (Brandel system). It is filed as cell-based. As to conditions: range in brackets. As for the experimental part: The DA and NA release is measured in separate brain areas, i.e., in striatum for DA release (evaluating tritiated dopamine) and in the frontal cortex for NA release (evaluating tritiated noradrenaline), using a Brandel system. The brain slices are loaded with the tritiated monoamine (dopamine or noradrenaline) and then superfused to produce basal neurotransmitter release. The slices are also subjected to 2 short periods of electrical stimulation to effect stimulated transmitter release.

Structures are written as SMILES.

As to `C[C@H](N)Cc1ccccc1` [d-amphetamine], the EC50 amounted to 1100 nM in assay [1] and 500 nM in assay [2].

As for `C[C@@H](N)Cc1ccccc1` [l-amphetamine], the results for the EC50 in assay [1] and in assay [2] were 3900 nM and 300 nM, respectively.
